# Measured values as given in PMC11396839, “Structure-Aided Computational Design of Triazole-Based Targeted Covalent Inhibitors of Cruzipain” (Molecules, 2024).
# Test system: T. cruzi
# Test: T. cruzi inhibition reported in literature
# Type: cell-based
# Settings: IC50^Tc vs IC50^CZP
smiles,measurement,value
CCCCC(C(=O)COc1c(F)c(F)cc(F)c1F)n1cc([C@@](C)(NCc2ccc3ncccc3c2)C(C)C)nn1 (stereo partly shown) [Ts-370],fold lower antitrypanosomal potency than CZP inhibitory potency,14 fold
